In the assay the test system is soman-induced seizures. In words: Anticonvulsant efficacy in the nerve agent soman model. The settings on record: given 40-min after soman.

For the molecule `CC(C)[C@H](N)C(=O)OCC(=O)[C@H]1CC[C@H]2[C@@H]3CCC4C[C@](C)(O)CC[C@]4(C)C3CC[C@]12C.Cl` (some centres unmarked), the “Termination of SE, soman model” value is given as “effectively terminated SE”.

For the molecule `C[C@@]1(O)CC[C@@]2(C)C(CC[C@@H]3C2CC[C@]2(C)[C@@H](C(=O)CO)CC[C@@H]32)C1` (some centres unmarked), the “Termination of SE, soman model” value was “effectively terminated SE”.

The values above are taken from patent US20230151052A1, “NEUROSTEROID COMPOUNDS AND METHODS FOR THEIR PREPARATION AND USE IN TREATING CENTRAL NERVOUS SYSTEM DISORDERS” (published 2023).
